PglD DTNB – inhibitors of Campylobacter jejuni PglD acetyltransferase; AID 602405; purified PglD enzyme, DTNB colorimetric CoA detection; 360,000 compounds, 0.098% hits; inhibition, % at 12.5 µM; in the data active means inhibition above about 16%, passing the limit was not always enough; inconclusive means no clear call, values can overlap the other calls
PGC1a acetyl inh – lowers PGC1a acetylation signal in U2OS cells. 350,000 compounds, 0.17% hits. AlphaScreen anti-acetyl-lysine; with virally co-expressed GCN5 acetyltransferase. inhibition, % at 15.6 µM;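 active means every replicate shows inhibition of at least 40%; inconclusive means mean inhibition at least 40% but some replicate below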;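 further: 0% = neutral control wells and 100% = positive control wells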
C2C12 statin – protects C2C12 myotubes from simvastatin toxicity. AID 602340. rescue of ATP level, % at 7.49 µM. 330,000 compounds, 0.78% hits. ATP luminescence, 48 h; scaled: DMSO 0, geranylgeraniol control 100;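 active means mean ATP rescue above about 67%, or every replicate alone reaching that limit, limit read from the data, passing the limit was not always enough; inconclusive means no clear call, values can overlap the other calls; inactive means mean under the limit and some replicate under it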;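 further: myotubes were challenged with 10 µM simvastatin during compound exposure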
UUG fidelity – modulators of start codon recognition fidelity in yeast; S. cerevisiae UUG-firefly luciferase reporter, luminescence/redox ratio; activity score, % at 18.7 µM; hit rate 0.13% among 350,000; AID 602363;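 active = replicate mean at a twofold rise or more, about +100% in these data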;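 note: firefly luciferase made from a UUG start codon reports start codon fidelity; reporter light over untreated wells divided by growth signal over untreated wells; some hits fall short of that in this replicate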
esBAF inh – SWI/SNF esBAF complex inhibition; mouse ES cells, Bmi1-luciferase knock-in reporter, 24 h; 100% = twice the neutral-well signal; reporter increase, % at 12.5 µM; 350,000 compounds, 2% hits; in the data active means activation above about 40%; inconclusive means no clear call, values can overlap the other calls;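 further: 0% = median of the plate's neutral control wells and 100% = double that signal; a rise in the Bmi1 reporter signal indicates esBAF inhibition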
E-selectin induc – E-selectin induction on HUVECs; activation, % at 7.58 µM; HUVEC E-selectin immunofluorescence imaging; normalized: neutral wells 0, TNF-alpha wells 100; P16581; 260,000 compounds, 0.37% hits;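 active means mean E-selectin-positive cell signal at least 10% of the positive control, reached in at least 60% of replicates, without over 20% cell loss; inconclusive means no rule given, readout overlaps actives, possibly toxicity-flagged; inactive means the rest, including those meeting only one limit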
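Test system: HUVEC; input: 3,000 HUVEC/well; measured by: immunofluorescence imaging; read-out: % PE-positive cells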
* = called active by the depositor; ? = inconclusive; · = no result. Only some compounds are listed: those with a hit (about 2.8% of all), similar ones and a draw of the others.

[1] CCc1ccc(/C(C)=N\Nc2ccc([N+](=O)[O-])cc2)cc1
[2] C/C(=N\Nc1nc(C)c(C)s1)c1ccc([N+](=O)[O-])cc1
[3] C/C(=N\Nc1ccc([N+](=O)[O-])cc1)c1ccc(N)cc1
[4] CO[C@H]1CN(C)C(=O)c2ccc(NC(=O)C3CCOCC3)cc2OC[C@@H](C)N(Cc2nccs2)C[C@H]1C
[5] O=C(CCN1CCCCC1)NCC[C@@H]1CC[C@@H](NC(=O)C2CC2)[C@@H](CO)O1
[6] CO[C@@H]1CN(C)C(=O)c2cc(NC(=O)c3ccccc3F)ccc2OC[C@H](C)N(C(=O)c2ccccc2F)C[C@@H]1C
Assay by compound | 1 | 2 | 3 | 4 | 5 | 6
PglD DTNB | 2 | · | 0 | 0 | 7 | 0
PGC1a acetyl inh | -7 | · | -2 | -5 | 17 | 0
C2C12 statin | 1 | · | 33 | 11 | -1 | 0
UUG fidelity | -17 | · | -15 | · | -5 | 8
esBAF inh | 44* | · | -5 | 2 | 2 | -1
E-selectin induc | · | 2 | · | 0 | 0 | 0

[7] Cc1cccc(-c2nnc(-c3cccc(NC(=O)Cc4cccs4)c3)o2)c1
[8] C[C@@H]1CCCCO[C@H](CN(C)Cc2ccncc2)[C@@H](C)CN([C@H](C)CO)C(=O)c2cc(NC(=O)NC3CCCCC3)ccc2O1
[9] CCCNC(=O)N1C[C@@H](O)COC[C@@H]2O[C@H](CC(=O)N3CCC(Cc4ccccc4)CC3)CC[C@H]21
[10] Cc1cc(C)nc(NC(=NCCc2c[nH]c3ccccc23)NC(=O)c2ccco2)n1
[11] O=C(NC(Cc1c[nH]c2ccccc12)C(=O)O)c1ccco1 (stereo not drawn)
[12] COC(=O)[C@@H](Cc1c[nH]c2ccccc12)NC(=O)c1ccc2c(c1)OCO2
Assay by compound | 7 | 8 | 9 | 10 | 11 | 12
PglD DTNB | -6 | -2 | -3 | · | 2 | 6
PGC1a acetyl inh | -20 | 2 | 4 | -12 | -2 | -4
C2C12 statin | 3 | -15 | -7 | 128* | 84* | 10
UUG fidelity | 0 | -10 | · | · | -5 | -44
esBAF inh | 80* | -6 | 0 | -3 | 4 | 68*
E-selectin induc | · | 2 | 0 | · | · | 4

[13] O=C(COC(=O)[C@H](Cc1c[nH]c2ccccc12)NC(=O)c1ccc(Cl)cc1)Nc1ccc2c(c1)OCO2
[14] Cc1ccc(S(=O)(=O)Nc2ccc3c(c2)CC(=O)N([C@@H](C)CO)C[C@H](C)[C@H](CN(C)Cc2ccc(Cl)c(Cl)c2)O3)cc1
[15] Cc1ccc(S(=O)(=O)Nc2ccc3c(c2)CC(=O)N([C@H](C)CO)C[C@H](C)[C@@H](CN(C)Cc2ccc(Cl)c(Cl)c2)O3)cc1
[16] Cc1ccc(S(=O)(=O)Nc2ccc3c(c2)CC(=O)N([C@H](C)CO)C[C@@H](C)[C@H](CN(C)Cc2ccc(Cl)c(Cl)c2)O3)cc1
[17] Cc1ccc(S(=O)(=O)Nc2ccc3c(c2)CC(=O)N([C@@H](C)CO)C[C@@H](C)[C@@H](CN(C)Cc2ccc(Cl)c(Cl)c2)O3)cc1
[18] C[C@@H]1CN([C@@H](C)CO)C(=O)Cc2cc(NS(=O)(=O)c3ccc(Cl)cc3)ccc2O[C@H]1CN(C)Cc1ccc(Cl)c(Cl)c1
Assay by compound | 13 | 14 | 15 | 16 | 17 | 18
PglD DTNB | 6 | -2 | -3 | 2 | 0 | -2
PGC1a acetyl inh | 1 | -4 | -6 | -10 | -3 | 5
C2C12 statin | 1 | 12 | 145* | 103* | 77* | ?
UUG fidelity | -18 | 7 | 18 | 0 | 10 | -9
esBAF inh | ? | 0 | 11 | 1 | 4 | 3
E-selectin induc | · | 0 | 0 | 0 | 0 | 0

[19] Cc1ccc(S(=O)(=O)Nc2ccc3c(c2)CC(=O)N([C@H](C)CO)C[C@@H](C)[C@@H](CN(C)Cc2ccc(Cl)c(Cl)c2)O3)cc1
[20] Cc1noc(C)c1NC(=O)Nc1ccc2c(c1)C(=O)N([C@H](C)CO)C[C@H](C)[C@H](CN(C)S(=O)(=O)c1ccc(Cl)cc1)O2
[21] C[C@@H]1CN([C@H](C)CO)C(=O)c2cc(NS(=O)(=O)c3ccccc3)ccc2O[C@@H]1CN(C)S(C)(=O)=O
[22] CCSc1nnc(Nc2ccccc2)s1
[23] O=C1CCCCC1Sc1nnc(Nc2ccccc2)s1 (stereo not drawn)
[24] CCSc1nnc(Nc2ccc(C)cc2)s1
Assay by compound | 19 | 20 | 21 | 22 | 23 | 24
PglD DTNB | 1 | 0 | -1 | 0 | 1 | 7
PGC1a acetyl inh | 0 | -11 | 5 | -3 | 8 | 3
C2C12 statin | 116* | -14 | 17 | -11 | 2 | -3
UUG fidelity | -5 | -14 | -14 | -7 | -17 | -21
esBAF inh | 1 | -1 | -1 | 58* | 71* | 83*
E-selectin induc | 0 | 1 | 0 | · | -2 | ·

By substructure, the compounds so far containing a furan ring, fused or not.
[10] Cc1cc(C)nc(NC(=NCCc2c[nH]c3ccccc23)NC(=O)c2ccco2)n1
[11] O=C(NC(Cc1c[nH]c2ccccc12)C(=O)O)c1ccco1 (stereo not drawn)
Assay by compound | 10 | 11
PglD DTNB | · | 2
PGC1a acetyl inh | -12 | -2
C2C12 statin | 128* | 84*
UUG fidelity | · | -5
esBAF inh | -3 | 4
E-selectin induc | · | ·

Compound activity from PubChem BioAssay.
